Assay results from ChEMBL document CHEMBL5136963, “Illuminating the norepinephrine transporter: fluorescent probes based on nisoxetine and talopram” (RSC Med Chem, 2021).

Protein sequences, listed by entry. Tags and fused reporters are not part of them.
UniProt Q9WTR4, whole entry: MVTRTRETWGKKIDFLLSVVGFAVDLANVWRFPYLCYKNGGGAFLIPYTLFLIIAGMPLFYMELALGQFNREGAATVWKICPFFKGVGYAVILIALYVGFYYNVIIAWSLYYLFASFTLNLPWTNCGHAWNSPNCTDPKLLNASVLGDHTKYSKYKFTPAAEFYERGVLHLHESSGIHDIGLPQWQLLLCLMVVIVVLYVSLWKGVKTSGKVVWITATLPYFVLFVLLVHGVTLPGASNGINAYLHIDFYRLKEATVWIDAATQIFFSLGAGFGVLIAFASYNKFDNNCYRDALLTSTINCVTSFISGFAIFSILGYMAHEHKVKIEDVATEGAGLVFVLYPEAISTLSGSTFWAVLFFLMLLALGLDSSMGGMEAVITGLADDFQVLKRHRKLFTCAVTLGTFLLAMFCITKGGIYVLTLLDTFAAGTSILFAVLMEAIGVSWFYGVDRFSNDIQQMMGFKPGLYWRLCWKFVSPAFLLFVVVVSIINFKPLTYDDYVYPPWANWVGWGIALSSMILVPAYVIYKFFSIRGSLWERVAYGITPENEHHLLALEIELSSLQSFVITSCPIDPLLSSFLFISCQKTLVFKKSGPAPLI

Target: Norepinephrine transporter (Rattus norvegicus, UniProt Q9WTR4)
Test: Displacement of [3H]-nisoxetine from NET in Sprague-Dawley rat brain prefrontal cortex incubated for 180 mins by radioligand binding assay
Format: tissue-based

CNCCC(Oc1ccccc1OC)c1ccccc1 (stereo unspecified) [NISOXETINE]
Ki: 1.5 nM
